Results from patent US4555572A, “Pyrazolo[3,4,5-kl]acridine compositions and methods for their production and use” (Warner-Lambert Company, priority 1984, dated 1985).

Tested on: lymphocytic leukemia P388
Experiment: in vivo lymphocytic leukemia P388 test
Design: species or system CD2 F1 mice
Details: Mus musculus, P388, ip, 120 h, intraperitoneally once daily for five days, read-out: P388 in vivo T/C × 100
Description: Another test protocol is the in vivo lymphocytic leukemia P388 test. The animals used are either male or female CD2 F1 mice, six or seven animals per test group. The tumor transplant is by intraperitoneal injection of dilute ascitic fluid containing cells of lymphocytic leukemia P388. The test compounds are administered intraperitoneally once daily for five consecutive days at various doses following tumor inoculation. The animals are weighed and survivors are recorded on a regular basis for 30 days. A compound is designated "toxic" if, at a given dose, all animals died prior to four days after the first injection of drug. A ratio of survival time for treated (T)/control (C) animals is calculated. A criterion for efficacy is a ratio T/C times 100 greater than or equal to 125. See Cancer Chemotherapy Reports, Part 3, 3, 1 (1972) for a comprehensive discussion of the protocol.

SMILES: CC[N+]([O-])(CC)CCn1nc2c3c(c([N+](=O)[O-])ccc31)Nc1ccccc1-2 [Example 35, N,N-Diethyl-5-nitropyrazolo[3,4,5-kl]acridine-2(6H)-ethanamine, N-oxide, methanesulfonate salt (5:6), hydrate (4:3)]
- response vs control in vivo at 6.25 mg/kg: 128%

Where a name gives a salt, the structure may show the parent alone.
